Values quoted from earlier work, collected in article PMC8792198 (Journal of pharmaceutical sciences, 2021).

System: OATP2A1
Settings: 100 μM diclofenac, same expression system; ref 31 (Glaeser et al, 2014); cited from earlier work

**Q.** For O=C(O)Cc1ccccc1Nc1c(Cl)cccc1Cl [diclofenac], which “effect on OATP2A1-mediated uptake of quercetin” value is on record?
**A.** Its value is “lack of effect”.
